Columns and labels:
Assay type in all cases: biochemical
FBXL10 = target: T1, FBXL10 (Homo sapiens, UniProt Q8NHM5); assay: FBXL10 in vitro enzyme inhibition assay (AlphaScreen)
T1 construct: purchased BPS Bioscience 50120
T1 sequence (Q8NHM5 1-650): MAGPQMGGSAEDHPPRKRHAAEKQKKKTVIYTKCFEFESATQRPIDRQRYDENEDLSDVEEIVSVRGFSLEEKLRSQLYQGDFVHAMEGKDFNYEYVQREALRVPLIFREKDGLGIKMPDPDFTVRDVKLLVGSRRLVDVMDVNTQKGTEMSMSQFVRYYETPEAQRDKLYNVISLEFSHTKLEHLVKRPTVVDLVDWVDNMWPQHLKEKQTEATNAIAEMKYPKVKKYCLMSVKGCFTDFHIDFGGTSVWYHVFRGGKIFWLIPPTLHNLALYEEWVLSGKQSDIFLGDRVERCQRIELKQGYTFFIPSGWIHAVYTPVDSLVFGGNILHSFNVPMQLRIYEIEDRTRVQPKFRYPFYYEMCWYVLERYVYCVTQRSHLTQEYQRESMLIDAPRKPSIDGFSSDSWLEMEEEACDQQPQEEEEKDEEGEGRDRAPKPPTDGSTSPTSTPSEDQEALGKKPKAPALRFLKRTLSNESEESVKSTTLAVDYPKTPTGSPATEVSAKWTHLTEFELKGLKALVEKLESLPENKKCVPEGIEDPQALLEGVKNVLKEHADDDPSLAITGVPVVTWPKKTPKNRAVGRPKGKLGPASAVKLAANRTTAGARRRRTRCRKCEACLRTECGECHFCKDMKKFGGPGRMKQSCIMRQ
From the text: (§1) This assay determines the ability of a test compound to inhibit FBXL11, FBXL10, and PHF8 demethylase activity. Baculovirus expressed FBXL11 (GenBank Accession #NM_012308, AA1-1162) was purchased from BPS Bioscience (Cat#50102). Baculovirus expressed FBXL10 (GenBank Accession #NM_032590, AA 1-650) was purchased from BPS Bioscience (Cat #50120). Baculovirus expressed PHF8 (GenBank Accession NP_055922.1) was purchased from Active Motif (Cat#31435).
The ability of test compounds to inhibit the activity of FBXL10 was determined in 384-well plate format under the following reaction conditions: 0.3 nM FBXL10, 30 nM H3K36me2-biotin labeled peptide (Anaspec cat # 64442), 0.2 µM alpha-ketoglutaric acid in assay buffer of 50 mM HEPES, pH7.3, 0.005% Brij35, 0.5 mM TCEP, 0.2 mg/ml BSA, 50 µM sodium L-ascorbate, 5 µM ammonium iron(II) sulfate. Reaction product is determined quantitatively by AlphaScreen detection after the addition of detection reagents anti-H3K36me1 antibody, AlphaScreen® Streptavidin-coated Donor beads, and AlphaScreen® Protein A Acceptor beads in 50 mM HEPES, pH7.3, 10 mM NaCl, 0.005% Brij35, 5 mM EDTA, 2 mg/ml BSA to final 10 µg/ml beads.
The assay reaction was initiated by the following: 3 µl of the mixture of 90 nM H3K36me2-biotin labeled peptide and 0.6 µM alpha-ketoglutaric acid with 3 µl of 11-point serial diluted inhibitor in 3% DMSO are added to each well of 384 well Proxiplate (Perkin Elmer), followed by the addition of 3 µl of 0.9 nM FBXL10 to initiate the reaction. The reaction mixture is incubated at room temperature for 1 hour, and terminated by the addition of 3 µl of appropriate dilution of anti H3K36me1 antibody in 50 mM HEPES, pH7.3, 10 mM NaCl, 0.005% Brij35, 5 mM EDTA, 2 mg/ml BSA. Plates will then incubated at room temperature for 40 minutes, followed by addition of 3 µl of 50 µg/ml AlphaScreen® Streptavidin-coated Donor beads and AlphaScreen® Protein A Acceptor beads in 50 mM HEPES, pH7.3, 10 mM NaCl, 0.005% Brij35, 5 mM EDTA, 2 mg/ml BSA. Plates will then be read by EnVision Multilabel Reader in AlphaScreen mode after minimum 2 hour incubation at room temperature. The AlphaScreen signal for each well is used to determine inhibition constant (IC50).

Chains of the proteins cited; added tags and fusions are not shown. Residues count along the entry.
UniProt Q9UPP1, 37-1060: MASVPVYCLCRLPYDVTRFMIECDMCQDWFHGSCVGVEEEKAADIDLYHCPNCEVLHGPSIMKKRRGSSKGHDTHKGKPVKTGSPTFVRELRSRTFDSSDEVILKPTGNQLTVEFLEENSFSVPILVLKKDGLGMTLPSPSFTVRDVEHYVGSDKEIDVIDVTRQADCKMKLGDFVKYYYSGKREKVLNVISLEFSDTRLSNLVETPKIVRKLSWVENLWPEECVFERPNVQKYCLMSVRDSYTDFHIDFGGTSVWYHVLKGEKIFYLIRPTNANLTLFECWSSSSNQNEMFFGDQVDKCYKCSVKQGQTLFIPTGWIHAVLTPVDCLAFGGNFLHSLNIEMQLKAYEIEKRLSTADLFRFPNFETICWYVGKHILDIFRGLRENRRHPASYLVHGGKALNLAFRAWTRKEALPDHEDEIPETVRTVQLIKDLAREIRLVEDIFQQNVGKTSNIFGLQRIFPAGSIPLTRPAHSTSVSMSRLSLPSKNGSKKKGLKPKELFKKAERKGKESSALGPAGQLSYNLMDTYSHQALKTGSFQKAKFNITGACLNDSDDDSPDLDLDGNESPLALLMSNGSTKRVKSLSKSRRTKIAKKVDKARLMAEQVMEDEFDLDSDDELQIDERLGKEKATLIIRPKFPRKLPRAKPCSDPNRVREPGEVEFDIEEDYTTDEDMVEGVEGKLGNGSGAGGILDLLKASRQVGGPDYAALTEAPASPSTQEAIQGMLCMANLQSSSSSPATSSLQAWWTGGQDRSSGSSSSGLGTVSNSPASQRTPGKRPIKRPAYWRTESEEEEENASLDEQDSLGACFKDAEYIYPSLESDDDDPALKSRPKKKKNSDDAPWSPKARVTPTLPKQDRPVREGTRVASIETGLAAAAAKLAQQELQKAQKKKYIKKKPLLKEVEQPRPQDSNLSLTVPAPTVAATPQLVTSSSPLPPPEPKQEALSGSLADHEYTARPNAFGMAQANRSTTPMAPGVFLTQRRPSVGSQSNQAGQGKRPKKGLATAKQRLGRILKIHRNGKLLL

PHF8 = target: T2, PHF8 (Homo sapiens, UniProt Q9UPP1); assay: PHF8 in vitro enzyme inhibition assay (TR-FRET); conditions: Table 3; 3 nM PHF8, H3K9me1-biotin labeled peptide
T2 construct: purchased Active Motif 31435
From the text: as §1
The ability of test compounds to inhibit the activity of PHF8 was determined in 384-well plate format under the following reaction conditions: 3 nM PHF8, 200 nM H3K9me1-biotin labeled peptide (Anaspec cat #64358), 0.5 µM alpha-ketoglutaric acid in assay buffer of 50 mM HEPES, pH7.3, 0.005% Brij35, 0.5 mM TCEP, 0.2 mg/ml BSA, 50 µM sodium L-ascorbate, and 5 µM ammonium iron(II) sulfate. Reaction product was determined quantitatively by TR-FRET after the addition of detection reagent Phycolink Streptavidin-allophycocyanin (Prozyme) and Europium-anti-unmodified-histone H3 lysine 9/lysine27 (H3K9/K27) antibody (PerkinElmer) in the presence of 5 mM EDTA in LANCE detection buffer (PerkinElmer) at a final concentration of 25 nM and 0.5 nM, respectively. […]

Jarid1B = target: T3, Jarid1B (Homo sapiens, UniProt Q9UGL1); assay: Jarid1B in vitro enzyme inhibition assay (TR-FRET); conditions: Table 5; 0.8 nM Jarid1B, H3K4me3-biotin labeled peptide; read-out: JARID1B IC5
T3 construct: purchased BPS Bioscience (or custom made by MolecularThroughput) 50121
T3 sequence (Q9UGL1 2-751): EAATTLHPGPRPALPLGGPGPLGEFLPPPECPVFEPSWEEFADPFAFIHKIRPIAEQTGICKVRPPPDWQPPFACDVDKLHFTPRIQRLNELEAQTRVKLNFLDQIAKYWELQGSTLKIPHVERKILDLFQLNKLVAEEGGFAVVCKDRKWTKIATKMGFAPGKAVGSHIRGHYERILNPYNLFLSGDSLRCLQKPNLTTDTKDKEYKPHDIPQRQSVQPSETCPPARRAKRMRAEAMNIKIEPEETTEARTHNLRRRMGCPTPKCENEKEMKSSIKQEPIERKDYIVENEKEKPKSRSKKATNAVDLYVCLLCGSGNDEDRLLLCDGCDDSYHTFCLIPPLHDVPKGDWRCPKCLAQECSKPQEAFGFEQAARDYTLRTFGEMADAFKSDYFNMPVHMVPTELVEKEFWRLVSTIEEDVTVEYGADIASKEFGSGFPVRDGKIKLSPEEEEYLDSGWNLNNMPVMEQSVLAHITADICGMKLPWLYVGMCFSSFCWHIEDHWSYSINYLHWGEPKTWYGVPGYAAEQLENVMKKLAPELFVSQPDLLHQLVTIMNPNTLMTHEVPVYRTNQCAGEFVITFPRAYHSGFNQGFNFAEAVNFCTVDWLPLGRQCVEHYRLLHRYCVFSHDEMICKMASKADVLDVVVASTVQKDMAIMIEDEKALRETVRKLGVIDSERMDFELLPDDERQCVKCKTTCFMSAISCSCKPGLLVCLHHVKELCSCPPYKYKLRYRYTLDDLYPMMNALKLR
From the text: This assay determines the ability of a test compound to inhibit Jarid1B, JMJD2C and JMJD3 demethylase activity. Baculovirus expressed Jarid1B (GenBank Accession #NM-006618, AA 2-751) was purchased from BPS Bioscience (Cat #50121) or custom made by MolecularThroughput. Baculovirus expressed JMJD2C (GenBank Accession #BC143571, AA 2-372) was purchased from BPS Bioscience (Cat#50105). Baculovirus expressed JMJD3 (GenBank Accession #NM-001080424, AA1043-end) was purchased from BPS Bioscience (Cat#50115).
The ability of test compounds to inhibit the activity of Jarid1B was determined in 384-well plate format under the following reaction conditions: 0.8 nM Jarid1B, 300 nM H3K4me3-biotin labeled peptide (Anaspec cat #64357), 2 µM alpha-ketoglutaric acid in assay buffer of 50 mM HEPES, pH7.3, 0.005% Brij35, 0.5 mM TCEP, 0.2 mg/ml BSA, 50 µM sodium L-ascorbate, and 2 µM ammonium iron(II) sulfate. Reaction product was determined quantitatively by TR-FRET after the addition of detection reagent Phycolink Streptavidin-allophycocyanin (Prozyme) and Europium-anti-mono-or di-methylated histone H3 lysine 4 (H3K4me1-2) antibody (PerkinElmer) in the presence of 5 mM EDTA in LANCE detection buffer (PerkinElmer) at a final concentration of 25 nM and 1 nM, respectively. […]

[1] = Table 3, 0.3 nM FBXL10, H3K36me2-biotin labeled peptide

| Structure (SMILES) | IC50 (FBXL10; [1]) | IC50 (PHF8) | IC50 (FBXL10; Table 5) | IC50 (Jarid1B) |
| --- | --- | --- | --- | --- |
| Cn1cnc(-c2cc(-c3c[nH]nn3)ccn2)c1 [Example 1, 2-(1-methylimidazol-4-yl)-4-(1H-triazol-4-yl)pyridine] | 100 to 1000 nM |  |  |  |
| FC(F)(F)Cn1cnc(-c2cc3[nH]nnc3cn2)c1 [Example 43, 4-{1H-[1,2,3]triazolo[4,5-c]pyridin-6-yl}-1-(2,2,2-trifluoroethyl)-1H-imidazole] | 100 to 1000 nM | 1000 to 10000 nM |  |  |
| Cn1cnc(-c2cc3[nH]nnc3cn2)c1-c1ccc(F)cc1OCC1CC1 [Example 54, 5-[2-(cyclopropylmethoxy)-4-fluorophenyl]-1-methyl-4-{1H-[1,2,3]triazolo[4,5-c]pyridin-6-yl}-1H-imidazole] | 100 to 1000 nM | 1000 to 10000 nM |  |  |

More lines, now with the values ahead:

| IC50 (FBXL10; [1]) | IC50 (PHF8) | IC50 (FBXL10; Table 5) | IC50 (Jarid1B) | Structure (SMILES) |
| --- | --- | --- | --- | --- |
|  |  | 100 to 1000 nM |  | CCc1ccc(CCn2cnc(-c3cc(-c4nn[nH]c4C(F)(F)F)ccn3)c2)cc1 [Example 95, 2-{1-[2-(4-ethylphenyl)ethyl]-1H-imidazol-4-yl}-4-[5-(trifluoromethyl)-1H-1,2,3-triazol-4-yl]pyridine] |
|  |  |  | 100 to 1000 nM | Fc1cccc2c1CCCC2Cn1cnc(-c2cc(-c3nn[nH]c3C(F)(F)F)ccn2)c1 (stereo not shown) [Example 99, 2-{1-[(5-fluoro-1,2,3,4-tetrahydronaphthalen-1-yl)methyl]-1H-imidazol-4-yl}-4-[5-(trifluoromethyl)-1H-1,2,3-triazol-4-yl]pyridine] |
